In US6734182B2, “Aryl sulfonamides and sulfamide derivatives and uses thereof” (Synaptic Pharmaceutical Corporation, priority 1995, dated 2004):
pKi: −log10 of the molar value.

Sequences of proteins named here, by UniProt entry; tags and fusion partners are left off.
UniProt P25021, whole entry: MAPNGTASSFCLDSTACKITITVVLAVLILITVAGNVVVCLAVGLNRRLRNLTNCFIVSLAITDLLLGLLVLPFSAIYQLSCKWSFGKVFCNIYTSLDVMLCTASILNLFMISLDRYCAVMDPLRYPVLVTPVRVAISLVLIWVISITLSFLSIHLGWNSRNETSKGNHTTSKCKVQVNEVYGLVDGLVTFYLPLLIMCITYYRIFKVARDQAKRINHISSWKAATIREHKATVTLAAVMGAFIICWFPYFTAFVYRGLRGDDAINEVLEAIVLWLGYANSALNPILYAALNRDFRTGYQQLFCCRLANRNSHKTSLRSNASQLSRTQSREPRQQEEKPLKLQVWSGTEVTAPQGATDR
UniProt P35367, whole entry: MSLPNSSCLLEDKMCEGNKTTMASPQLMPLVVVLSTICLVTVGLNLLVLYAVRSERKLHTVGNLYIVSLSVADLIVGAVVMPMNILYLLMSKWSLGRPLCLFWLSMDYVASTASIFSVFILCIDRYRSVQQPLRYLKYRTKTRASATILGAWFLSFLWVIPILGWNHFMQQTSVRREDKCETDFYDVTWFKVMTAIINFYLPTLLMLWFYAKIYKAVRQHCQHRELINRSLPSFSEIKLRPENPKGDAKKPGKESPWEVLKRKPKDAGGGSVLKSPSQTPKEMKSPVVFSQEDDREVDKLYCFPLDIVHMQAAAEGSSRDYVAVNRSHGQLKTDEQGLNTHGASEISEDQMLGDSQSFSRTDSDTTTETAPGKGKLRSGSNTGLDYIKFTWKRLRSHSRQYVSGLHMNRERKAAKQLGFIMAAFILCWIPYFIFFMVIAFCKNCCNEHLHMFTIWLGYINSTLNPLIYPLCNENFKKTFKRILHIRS

Legend:
[1] = target: T1, human histamine H2 receptor (Homo sapiens, UniProt P25021); experiment: Binding to human histamine H2 receptor ([3H]tiotidine)
T1 construct: expressed in transfected cells; host or cells: COS-7 cells, transient (DEAE-dextran), plasmid pcEXV-H2 (ATCC 75345)

cloned human Y5 receptor = target: T2, cloned human Y5 receptor (Homo sapiens, UniProt Q15761); experiment: Functional assay: block of NPY-induced inhibition of cAMP accumulation in forskolin-stimulated LM(tk-) cells (radioimmunoassay of cAMP); type: cell-based
T2 construct: expressed in transfected cells
T2 sequence (Q15761 1-445): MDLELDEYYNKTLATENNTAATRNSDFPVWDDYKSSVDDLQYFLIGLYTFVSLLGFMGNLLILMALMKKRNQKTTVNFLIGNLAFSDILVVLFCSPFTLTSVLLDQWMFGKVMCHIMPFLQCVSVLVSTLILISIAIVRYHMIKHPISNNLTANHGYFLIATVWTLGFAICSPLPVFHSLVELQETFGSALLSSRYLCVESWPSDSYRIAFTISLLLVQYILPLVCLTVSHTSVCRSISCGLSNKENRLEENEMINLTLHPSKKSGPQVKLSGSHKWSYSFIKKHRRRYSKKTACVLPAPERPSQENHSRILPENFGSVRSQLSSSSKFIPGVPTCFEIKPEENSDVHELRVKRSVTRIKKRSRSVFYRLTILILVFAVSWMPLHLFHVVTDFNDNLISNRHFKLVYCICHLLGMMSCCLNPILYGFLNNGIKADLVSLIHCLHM

[2] = target: T3, human histamine H1 receptor (Homo sapiens, UniProt P35367); experiment: Binding to human histamine H1 receptor ([3H]mepyramine)
T3 construct: expressed in transfected cells; host or cells: COS-7 cells, transient (DEAE-dextran), plasmid pcEXV-H1 (ATCC 75346)

O=S(=O)(NC[C@H]1CC[C@H](CNC(CO)Cc2ccc(Cl)cc2)CC1)c1cccc2ccccc12 (relative stereo) [Example 77, Naphthalene-1-sulfonic Acid trans-(4-{[2-(4-Chloro-phenyl)-1-hydroxymethyl-ethylamino]-methyl}-cyclohexylmethyl)-amide]
pKi [1]: 6.43 | Kb (cloned human Y5 receptor): 311 nM | pKi [2]: 6.43
